Laboratory results from patent US20170233496A1 (NECTAGEN, published 2017).

Biological target: beta-D-galactosidase; biotinylated (Rockland Chemical, B000-17) (Escherichia coli (strain K12), UniProt P00722 1-1024 = β-galactosidase)
Assay: affinity purification (IP) of Bgal from spiked E. coli lysate, SDS-PAGE, FIG. 9H

Binder	binding result
PC896 (designed binder) MCSSHHHHHHNPSLIRSESWQVYEGNEANLLDGDDNTGVWYKKAKNLASLAGEFIGLDLGKEIKLDGIRFVIGKNGGGSSDKWNKFKLEYSLDNESWTTIKEYDKTGAPAGKDVIEESFETPISAKYIRLTNLESYFNFLTFSEFAIVSD	binds
PC923 (designed binder) MCSSHHHHHHNPSLIRSESWQLIEGNEANLLDGDDNTGVWYFKDWHTASLAGEFIGLDLGKEIKLDGIRFVIGKNGGGSSDKWNKFKLEYSLDNESWTTIKEYDKTGAPAGKDVIEESFETPISAKYIRLTNLESYFEYLTFSEFAIVSD	binds
